Tested on: THP1-Dual cells (ISG54 promoter Lucia luciferase reporter)
Experiment: THP-1 Dual Lucia Reporter Gene Assay
Format: cell-based, human
Conditions: Homo sapiens, THP1-Dual, 20 h, Lucia luciferase signal induction, 20 hours at 37° C., read-out: Cellular THP 1 EC50
Procedure: THP1-Dual™ cells (InvivoGen #thpd-nfis) were derived from the human THP-1 monocyte cell line by stable integration of the Lucia luciferase gene, a secreted luciferase reporter gene, under the control of an ISG54 (interferon-stimulated gene) minimal promoter in conjunction with five interferon (IFN)-stimulated response elements. […] The cell plates were dosed with 62.5 nL of the testing compounds, and then incubated at 37° C. for 20 hours. At the end of the incubation, 15 μL/well of the QUANTI-Luc™ (InvivoGen #rep-q1c1) were added, and luminescence was measured immediately using the LeadSeeker.
Compound concentration versus percent signal induction curves were fitted to generate EC50 values.

Work on `Nc1nc2c(ncn2[C@@H]2O[C@@H]3COP(=O)(O)O[C@H]4C[C@H](Nc5ncnc6ccnn56)C[C@@H]4COP(=O)(O)O[C@@H]2[C@@H]3O)c(=O)[nH]1` [Compound I-36, 2-amino-9-[(5R,7R,8R,12aR,14R,15aS,16R)-2,10,16-trihydroxy-2,10-dioxido-14-(pyrazolo[1,5-a][1,3,5]triazin-4-ylamino)decahydro-5,8-methanocyclopenta[1][1,3,6,9,11,2,10]pentaoxadiphosphacyclotetradecin-7-yl]-1,9-dihydro-6H-purin-6-one] yielded an EC50 of 10 to 25 µM.

— patent US11542293B2, “Sting modulator compounds, and methods of making and using” (Takeda Pharmaceutical Company Limited, priority 2017, dated 2023)
